The numbers were not newly measured in patent US20210346383A1, “COMPOUNDS, COMPOSITIONS AND METHODS FOR TREATING OR PREVENTING HER-DRIVEN CANCERS” (Rain Therapeutics Inc., priority 2018, published 2021), which cites them from elsewhere.

Sequences of proteins named here, by UniProt entry; tags and fusion partners are left off. Residues count along the entry.
UniProt P00533, 25-1210 T790M/L858R: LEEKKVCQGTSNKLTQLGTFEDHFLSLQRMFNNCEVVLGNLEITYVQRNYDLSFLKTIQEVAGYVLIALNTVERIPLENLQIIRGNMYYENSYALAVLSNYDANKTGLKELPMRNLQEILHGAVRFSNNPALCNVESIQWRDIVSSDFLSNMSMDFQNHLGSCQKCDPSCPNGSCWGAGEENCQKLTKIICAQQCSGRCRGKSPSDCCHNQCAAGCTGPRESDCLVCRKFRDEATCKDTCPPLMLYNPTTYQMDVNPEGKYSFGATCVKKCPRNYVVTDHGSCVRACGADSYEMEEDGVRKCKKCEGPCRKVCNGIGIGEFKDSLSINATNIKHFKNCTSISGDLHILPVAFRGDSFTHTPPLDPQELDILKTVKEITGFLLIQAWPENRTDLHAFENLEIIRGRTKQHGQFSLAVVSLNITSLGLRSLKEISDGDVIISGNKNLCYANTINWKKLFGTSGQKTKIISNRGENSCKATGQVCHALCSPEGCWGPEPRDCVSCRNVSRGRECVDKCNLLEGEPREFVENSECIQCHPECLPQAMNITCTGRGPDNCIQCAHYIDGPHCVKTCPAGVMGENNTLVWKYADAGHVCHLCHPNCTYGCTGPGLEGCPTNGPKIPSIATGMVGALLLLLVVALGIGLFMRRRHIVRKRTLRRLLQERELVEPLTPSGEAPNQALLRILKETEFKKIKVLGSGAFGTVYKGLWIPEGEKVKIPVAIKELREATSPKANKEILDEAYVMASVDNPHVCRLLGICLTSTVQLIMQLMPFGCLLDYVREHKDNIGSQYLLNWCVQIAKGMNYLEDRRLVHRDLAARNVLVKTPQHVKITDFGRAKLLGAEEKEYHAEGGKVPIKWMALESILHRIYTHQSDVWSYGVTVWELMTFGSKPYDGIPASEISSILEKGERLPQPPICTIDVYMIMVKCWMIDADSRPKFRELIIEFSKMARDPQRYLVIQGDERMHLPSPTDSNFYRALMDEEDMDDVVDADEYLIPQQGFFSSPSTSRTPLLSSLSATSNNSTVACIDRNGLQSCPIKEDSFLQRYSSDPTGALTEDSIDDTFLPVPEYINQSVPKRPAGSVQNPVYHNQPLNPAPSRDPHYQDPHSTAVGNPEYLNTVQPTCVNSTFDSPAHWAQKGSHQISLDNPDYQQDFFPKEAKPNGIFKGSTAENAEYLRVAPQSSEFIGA
UniProt P00533, 25-1210 T790M/C797S/L858R: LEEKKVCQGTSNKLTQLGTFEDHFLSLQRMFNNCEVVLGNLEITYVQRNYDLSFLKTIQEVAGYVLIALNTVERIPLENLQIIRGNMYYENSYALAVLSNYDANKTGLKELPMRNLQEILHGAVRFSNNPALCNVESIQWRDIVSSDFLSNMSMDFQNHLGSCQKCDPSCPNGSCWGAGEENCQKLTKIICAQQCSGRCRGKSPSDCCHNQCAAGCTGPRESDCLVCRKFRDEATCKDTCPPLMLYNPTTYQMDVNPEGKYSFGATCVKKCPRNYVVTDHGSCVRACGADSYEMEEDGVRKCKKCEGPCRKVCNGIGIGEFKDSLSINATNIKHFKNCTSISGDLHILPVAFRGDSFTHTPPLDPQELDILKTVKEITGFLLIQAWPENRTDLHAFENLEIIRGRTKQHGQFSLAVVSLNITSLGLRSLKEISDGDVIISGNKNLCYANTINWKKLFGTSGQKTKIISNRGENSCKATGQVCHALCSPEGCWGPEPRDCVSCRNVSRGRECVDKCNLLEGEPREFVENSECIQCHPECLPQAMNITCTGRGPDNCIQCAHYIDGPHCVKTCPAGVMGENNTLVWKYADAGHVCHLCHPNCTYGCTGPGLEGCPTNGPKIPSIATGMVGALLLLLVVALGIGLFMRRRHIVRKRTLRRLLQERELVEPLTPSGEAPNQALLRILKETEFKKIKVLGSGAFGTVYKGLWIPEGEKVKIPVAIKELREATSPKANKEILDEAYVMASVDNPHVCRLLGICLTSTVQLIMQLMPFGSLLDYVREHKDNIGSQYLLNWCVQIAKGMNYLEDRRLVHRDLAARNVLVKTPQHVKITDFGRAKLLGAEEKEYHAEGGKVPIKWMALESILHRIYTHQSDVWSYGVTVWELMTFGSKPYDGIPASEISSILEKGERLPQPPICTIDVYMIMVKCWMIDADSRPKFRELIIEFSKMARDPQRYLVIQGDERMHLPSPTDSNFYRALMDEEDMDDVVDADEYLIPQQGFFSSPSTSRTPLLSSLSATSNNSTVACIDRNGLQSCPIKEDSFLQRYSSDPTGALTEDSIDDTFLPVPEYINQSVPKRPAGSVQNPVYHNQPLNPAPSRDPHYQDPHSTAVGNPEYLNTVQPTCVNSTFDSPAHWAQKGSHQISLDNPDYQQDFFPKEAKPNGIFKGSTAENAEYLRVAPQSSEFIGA

Each structure is given as a SMILES string. A value given as a limit tells only on which side of the number the result lay.

The target of one series is EGFR (L858R/T790M) (Homo sapiens, UniProt P00533, L858R/T790M). To be noted: read-out: IC50, published data; cited from earlier work.
A further series concerns the target EGFR (L858R/T790M/C797S) (Homo sapiens, UniProt P00533, C797S/L858R/T790M). The following applies: read-out: IC50, published data; cited from earlier work.

For `Cc1cc(C(=O)Nc2nc3cccc(Cl)c3n2[C@@H]2CCCCN(C(=O)/C=C/CN(C)C)C2)ccn1` [EGF816], the IC50 (commonly the concentration needed to halve the response being measured) is < 1 nM at EGFR (L858R/T790M) and 196 nM on EGFR (L858R/T790M/C797S).
